Results reported in ChEMBL document CHEMBL1125045, “Hemicholinium-3 congeners as potential antagonists to organophosphate-induced toxicity” (1990).

Tests used:
Oryctolagus cuniculus [1] = test: Ability to inhibit neuromuscular transmission in rabbit was determined at a dose 5.6 mg/kg
Oryctolagus cuniculus [2] = test: Ability to inhibit neuromuscular transmission in rabbit was determined at a dose 0.16 mg/kg
Oryctolagus cuniculus [3] = test: Ability to inhibit neuromuscular transmission in rabbit was determined at a dose 2.08 mg/kg
Oryctolagus cuniculus [4] = test: Ability to inhibit neuromuscular transmission in rabbit was determined at a dose 1.8 mg/kg

## O=C(CN1CCCC1)c1ccc(-c2ccc(C(=O)CN3CCCC3)cc2)cc1
Oryctolagus cuniculus [1]
  Activity: inactive

## CC1C[N+](C)(CC(=O)c2ccc(-c3ccc(C(=O)C[N+]4(C)CCOC(C)C4)cc3)cc2)CCO1 (centres undefined)
Oryctolagus cuniculus [2]
  Activity: inactive

## O=C(CN1CCOCC1)c1ccc(-c2ccc(C(=O)CN3CCOCC3)cc2)cc1
Oryctolagus cuniculus [3]
  Activity: inactive

## O=C(CN1CCCCC1)c1ccc(-c2ccc(C(=O)CN3CCCCC3)cc2)cc1
Oryctolagus cuniculus [4]
  Activity: inactive

Activity calls are given as the source filed them. No cut-off for these calls is given here.
